Assay results from patent publication EP0523873A1, “Non-substrate peptide inhibitors of farnesyl protein transferase” (MERCK & CO. INC., priority 1991, dated 1993).

Test system: partially pure bovine brain farnesyl-protein transferase
Assay: Tetrapeptides tested as farnesylation substrates with [3H]FPP (TLC / autoradiography)
Type: biochemical
Conditions: peptide 200 µM, 0.5 µM [3H]-FPP, 30 minutes at 30°C
Description: When a peptide was used as the acceptor substrate, there were two changes to the assay: (1) Ras protein was excluded and, (2) the reactions were stopped by the addition of one tenth volume of 0.5 M EDTA. A portion of the reaction mixture was spotted onto a TLC plate (silica gel 60 thin layer chromatography plates (20 cm x 20 cm, 0.25 mm layer thickness) [formula] were from E. Merck (Darrnstadt)) and eluted with either ethyl acetate:pyridine:acetic acid:water (10:5:1:3) or n-propanol:water (7:3) elution systems. After drying under vacuum, the plates were sprayed with En³Hance and exposed to X-ray film at -70°C.
CAAX tetrapeptides and other tetrapeptides including Cys-Xaa¹-Xaa²-Xaa³ were tested as farnesylation substrates using [³H]FPP and partially pure bovine brain farnesyl-protein transferase.
The indicated peptides at 200 µM were incubated with partially pure bovine farnesyl-protein transferase and 0.5 µM [3H]-FPP for 30 minutes at 30°C. Autoradiographic exposure time was overnight (15-20 hours).

In the case of `CC(C)C[C@H](NC(=O)[C@@H](NC(=O)[C@@H](N)CS)C(C)C)C(=O)N[C@@H](CO)C(=O)O` [CVLS, Cys-Val-Leu-Ser], the “Farnesylation Substrate” value is reported as “+ (+ > 90% [3H] farnesyl diphosphate converted to [3H] farnesyl tetrapeptide)”.
